For assay [1], the target named is Metabotropic glutamate receptor 5 (Homo sapiens, UniProt P41594). As to the kind of experiment: Effective concentration against metabotropic glutamate receptor 5 of human transfected into CHO cells. The assay is classed as cell-based.
In assay [2] the target is Metabotropic glutamate receptor 5 (Rattus norvegicus, UniProt P31424). As to the kind of experiment: Effective concentration against metabotropic glutamate receptor 5 of rat. The procedure, abridged: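 FLIPR calcium assay in CHO cells transfected with human or rat mGluR5. Compound added with a low glutamate concentration (300 nM), measuring increase in response; compound alone (up to 100 µM) checked for agonist activity. EC50 for potentiation and maximal fold potentiation over the glutamate response determined; values may vary up to 5-fold day to day owing to steep agonist curves (nH ~2).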

Sequences of proteins named here, by UniProt entry; tags and fusion partners are left off.
UniProt P41594, whole entry: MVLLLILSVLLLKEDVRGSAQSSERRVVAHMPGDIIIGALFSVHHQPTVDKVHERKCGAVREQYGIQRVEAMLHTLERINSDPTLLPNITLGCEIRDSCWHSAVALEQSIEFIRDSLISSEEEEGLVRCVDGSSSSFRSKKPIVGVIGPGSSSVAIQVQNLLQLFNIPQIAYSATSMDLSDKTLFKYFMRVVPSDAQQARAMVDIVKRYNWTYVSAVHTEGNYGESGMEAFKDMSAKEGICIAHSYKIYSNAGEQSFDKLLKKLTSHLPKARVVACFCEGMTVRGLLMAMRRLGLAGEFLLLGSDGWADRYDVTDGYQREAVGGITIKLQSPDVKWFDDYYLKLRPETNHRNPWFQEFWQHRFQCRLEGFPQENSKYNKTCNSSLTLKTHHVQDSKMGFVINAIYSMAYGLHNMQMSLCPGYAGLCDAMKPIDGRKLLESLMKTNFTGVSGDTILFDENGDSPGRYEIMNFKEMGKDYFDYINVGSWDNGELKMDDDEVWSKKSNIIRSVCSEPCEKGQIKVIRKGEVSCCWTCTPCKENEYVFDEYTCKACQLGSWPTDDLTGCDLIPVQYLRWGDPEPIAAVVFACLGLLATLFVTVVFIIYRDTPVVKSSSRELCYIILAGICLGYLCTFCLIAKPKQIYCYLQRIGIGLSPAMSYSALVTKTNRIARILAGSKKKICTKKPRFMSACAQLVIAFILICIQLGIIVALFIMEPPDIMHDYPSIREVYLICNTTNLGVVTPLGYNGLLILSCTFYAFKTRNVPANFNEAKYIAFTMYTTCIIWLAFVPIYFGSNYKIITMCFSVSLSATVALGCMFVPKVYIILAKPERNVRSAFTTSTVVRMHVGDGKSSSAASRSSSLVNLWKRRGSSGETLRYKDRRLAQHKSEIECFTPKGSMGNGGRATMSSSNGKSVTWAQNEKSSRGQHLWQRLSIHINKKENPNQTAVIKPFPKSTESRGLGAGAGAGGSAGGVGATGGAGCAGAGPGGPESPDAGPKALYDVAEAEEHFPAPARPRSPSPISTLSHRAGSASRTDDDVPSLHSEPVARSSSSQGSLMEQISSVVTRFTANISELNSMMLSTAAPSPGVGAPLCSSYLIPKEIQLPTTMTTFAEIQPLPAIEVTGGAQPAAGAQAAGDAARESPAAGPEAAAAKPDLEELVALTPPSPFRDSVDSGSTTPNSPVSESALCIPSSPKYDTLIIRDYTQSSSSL
UniProt P31424, whole entry: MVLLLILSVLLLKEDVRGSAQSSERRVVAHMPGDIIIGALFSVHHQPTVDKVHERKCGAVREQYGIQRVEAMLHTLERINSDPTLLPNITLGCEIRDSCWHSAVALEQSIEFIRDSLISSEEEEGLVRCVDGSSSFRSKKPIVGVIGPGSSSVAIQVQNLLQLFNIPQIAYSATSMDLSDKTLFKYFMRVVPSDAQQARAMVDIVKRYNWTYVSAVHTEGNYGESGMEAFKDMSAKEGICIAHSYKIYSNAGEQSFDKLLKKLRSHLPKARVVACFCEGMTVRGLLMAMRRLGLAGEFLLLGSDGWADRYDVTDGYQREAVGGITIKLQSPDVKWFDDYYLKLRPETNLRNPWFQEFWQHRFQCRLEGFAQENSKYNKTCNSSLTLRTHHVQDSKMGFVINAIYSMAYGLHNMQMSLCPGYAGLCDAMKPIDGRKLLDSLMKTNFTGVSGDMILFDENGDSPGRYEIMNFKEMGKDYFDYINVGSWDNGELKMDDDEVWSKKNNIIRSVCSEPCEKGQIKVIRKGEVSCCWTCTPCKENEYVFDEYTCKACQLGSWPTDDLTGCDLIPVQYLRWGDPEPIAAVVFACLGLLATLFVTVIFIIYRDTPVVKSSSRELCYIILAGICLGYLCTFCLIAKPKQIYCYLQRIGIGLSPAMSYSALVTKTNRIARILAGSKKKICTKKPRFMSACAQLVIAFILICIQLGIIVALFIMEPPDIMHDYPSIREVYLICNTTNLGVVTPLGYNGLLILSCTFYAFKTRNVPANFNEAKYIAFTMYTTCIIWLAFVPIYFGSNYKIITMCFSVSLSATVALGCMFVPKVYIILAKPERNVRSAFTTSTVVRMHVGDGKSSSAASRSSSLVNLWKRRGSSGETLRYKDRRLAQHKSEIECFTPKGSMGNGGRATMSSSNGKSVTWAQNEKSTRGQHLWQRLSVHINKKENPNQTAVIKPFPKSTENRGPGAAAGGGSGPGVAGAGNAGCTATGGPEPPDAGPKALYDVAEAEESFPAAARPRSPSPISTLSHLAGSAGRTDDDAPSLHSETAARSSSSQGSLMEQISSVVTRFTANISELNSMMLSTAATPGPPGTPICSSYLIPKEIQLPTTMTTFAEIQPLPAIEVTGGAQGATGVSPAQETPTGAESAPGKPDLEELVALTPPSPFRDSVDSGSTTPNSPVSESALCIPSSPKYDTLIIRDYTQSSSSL

Among the data in ChEMBL document CHEMBL1138840, “Discovery of positive allosteric modulators for the metabotropic glutamate receptor subtype 5 from a series of N-(1,3-diphenyl-1H- pyrazol-5-yl)benzamides that potentiate receptor function in vivo” (J Med Chem, 2004) are EC50 values, retold here.

On to `N#Cc1cccc(C(=O)Nc2cc(-c3ccccc3)nn2-c2ccccc2)c1`, for which the EC50 (usually the concentration at which the effect is half-maximal) in assay [1] worked out at 10 nM; in assay [2], 20 nM.
